Values quoted from earlier work, collected in patent US20250222108A1, “MEDICAL AGENT INCLUDING ADJUVANT AND COMPOSITE OF PHOTOSENSITIVE MOLECULE AND MOLECULE BINDING TO CANCER-SPECIFIC CELL SURFACE MOLECULE” (KYOTO UNIVERSITY, priority 2021, published 2025).

Test system: human dendritic cells
Settings: FaDu cells treated and light-irradiated, co-cultured with dendritic cells, then polyI:C; versus control without light irradiation; cited from earlier work

**Q.** Which results are given for “cetuximab IRDye 700DX: cetuximab conjugated with IRDye 700DX, as described in Patent Literature 1”?
**A.** CD80 expression level of human dendritic cells: increased; CD86 expression level of human dendritic cells: increased
